What was measured:
Format in all cases: physicochemical
[1] = Chemical stability: HMWP formation by SEC-MS; conditions: 250 μM, pH 7.4, 37° C., 4 weeks
Experimental: The aim of this study is to determine the chemical stability of GIP derivative compositions. As a measure of stability of the GIP derivative composition, the formation of high molecular weight peptide formation (% HMWP) as a function of time was analysed by size-exclusion chromatography (SEC-MS). Further, the purity loss of the GIP derivative compositions was measured by LCMS. Samples for chemical stability assays were freshly prepared before each assay. […] The pH of the sample was adjusted to the desired value using appropriate amounts of concentrated NaOH and HCl. […] Formation of covalent oligomers (HMWPs) was analysed and identified by a SEC-MS method. […] The LC system was coupled to both a TUV detector operated at 215 nm, 10 Hz and a high resolution QToF mass spectrometer from Waters (Synapt G2S) operated in positive ion mode and m/z range of 100 to 4000 with normal resolution setting. Lock mass correction against Leu-Enkephalin was done every 31 sec. Spectra were processed in MassLynx version 4.1 and MaxEnt deconvoluted.

[2] = Chemical stability: purity loss by LCMS; conditions: 250 μM, pH 7.4, 37° C., 4 weeks
Experimental: The aim of this study is to determine the chemical stability of GIP derivative compositions. As a measure of stability of the GIP derivative composition, the formation of high molecular weight peptide formation (% HMWP) as a function of time was analysed by size-exclusion chromatography (SEC-MS). Further, the purity loss of the GIP derivative compositions was measured by LCMS. Samples for chemical stability assays were freshly prepared before each assay. […] The pH of the sample was adjusted to the desired value using appropriate amounts of concentrated NaOH and HCl. […] The column oven was kept at 55° C. […] The solvents were pumped from a binary solvent manager system and mixed on the high pressure side in a mixer with a volume of 50 μl. The gradient and flow can be seen in table 4: A Flow-through-needle auto sampler at 8° C. was used to inject 1 μl of each sample. The effluent passed through a tuneable UV detector (TUV) tuned to 215 nm. The outlet from the UV detector passed to the electrospray source of the mass spectrometer. The capillary was held at 3 kV and dry nitrogen gas was purged at a flow of 750 l/h and a temperature of 250° C. The source block was kept at 120° C. and the large bore cone was flushed with nitrogen at 50 l/h with standard electrode potentials on the rest of the instrument. The MS was operated in high resolution mode with a nominal resolution of 35000. The ToF analyser was operated in ADC mode with an m/z window from 100-2000.

[3] = ThT fibrillation assay (physical stability); conditions: 250 μM, pH 7.4, 37° C., 45 hours of incubation
Experimental: The Thioflavin T assay was performed as outlined in Schlein (2017), AAPS J, 19(2), 397-408.
Low physical stability of a peptide may lead to amyloid fibril formation, which is observed as well-ordered, thread-like macromolecular structures in the sample, which eventually may lead to gel formation. This has traditionally been measured by visual inspection of the sample. However, that kind of measurement is very cumbersome and depending on the observer. Therefore, the application of a small molecule indicator probe is much more advantageous. Thioflavin T (ThT) is such a probe and has a distinct fluorescence signature when binding to fibrils [Naiki et al. (1989) Anal. Biochem. 177, 244-249; LeVine (1999) Methods. […]
Here, F is the ThT fluorescence at the time t. The constant t0 is the time needed to reach 50% of maximum fluorescence. The two important parameters describing fibril formation are the lag-time calculated by t0−2τ and the apparent rate constant kapp 1/τ. […]
Incubation, shaking and measurement of the ThT fluorescence emission were done in a Fluoroskan Ascent FL fluorescence platereader (Thermo Labsystems). […] Fluorescence measurement was done using excitation through a 444 nm filter and measurement of emission through a 485 nm filter. […]
Each run was initiated by incubating the plate at the assay temperature for 10 min. The plate was measured every 20 minutes for a desired period of time. […]

[4] = Dynamic Light Scattering Stability Index (DLS-SI); conditions: 250 μM, pH 7.4, 4 weeks at 25° C.

Row | Substance | HMWP formation (%/month) [1] [%/month] | Purity loss (%/month) [2] [%/month] | ThT Assay Lag time [3] [h] | DLS-SI Dimensionless [4] | DLS-SI precipitates [4]
1 | N{1}-acetyl,N{Epsilon-24}-[(4S)-4-carboxy-4-[[(4S)-4-carboxy-4-[[(4S)-4-carboxy-4-[[4-[(19-carboxynonadecanoylamino)methyl]cyclohexanecarbonyl]amino]butanoyl]-amino]butanoyl]amino]butanoyl]-[D-Tyr1,Nle14,Arg18,Aib20,Lys24]-hGIP(1-31) [Compound 25] | 0.40 | 2.00 |  |  | 
2 | N{1}-acetyl,N{Epsilon-24}-[(4S)-4-carboxy-4-[[(4S)-4-carboxy-4-[[(4S)-4-carboxy-4-[[4-[(19-carboxynonadecanoylamino)methyl]cyclohexanecarbonyl]amino]butanoyl]-amino]butanoyl]amino]butanoyl]-[D-Tyr1,Nle14,Arg18,Glu20, Lys24]-hGIP(1-31) [Compound 23] | 0.40 | 1.60 | >45 | 1.7 | No
3 | N{1}-acetyl,N{Epsilon-24}-[(4S)-4-carboxy-4-[[(4S)-4-carboxy-4-[[(4S)-4-carboxy-4-[[(4S)-4-carboxy-4-[[4-[(19-carboxynonadecanoylamino)methyl]cyclohexanecarbonyl]amino]butanoyl]amino]butanoyl]amino]butanoyl]amino]butanoyl]-[D-Tyr1,Nle14,Arg18,Lys24]-hGIP(1-31) [Compound 30] | 0.10 | 1.14 | >45 | 1.1 | No

Reference: patent publication US11633459B2, “GIP derivatives and uses thereof” (priority 2018, dated 2023)
